For experiment [1], the target named is Cytochrome P450 3A4 (Homo sapiens) (UniProt P08684). Description: qHTS for inhibitors of CYP3A4 against the NCATS DSHEA and TCM libraries (AID 1919971).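 Also: % is scaled to controls: 0 for no effect and ±100 for the full control effect; inhibition lowers luminescence from luciferin made by CYP3A4.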 As to conditions: recombinant CYP3A4 enzyme activity, luminescence qHTS; at 34.1 µM (top of the series). The method in brief:
(§1)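 Luminescent P450-Glo readout. Enzyme plus pro-luciferin substrate in manufacturer buffer (typically 100 mM KPO4); 15 min RT preincubation; 1x NADPH regenerating system, 30-45 min RT in the dark; detection reagent 30 min.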
A general note: qHTS replaces the single test concentration by a dilution series.

Amino acid sequences for entries named in this document (tags omitted).
UniProt P08684, whole entry: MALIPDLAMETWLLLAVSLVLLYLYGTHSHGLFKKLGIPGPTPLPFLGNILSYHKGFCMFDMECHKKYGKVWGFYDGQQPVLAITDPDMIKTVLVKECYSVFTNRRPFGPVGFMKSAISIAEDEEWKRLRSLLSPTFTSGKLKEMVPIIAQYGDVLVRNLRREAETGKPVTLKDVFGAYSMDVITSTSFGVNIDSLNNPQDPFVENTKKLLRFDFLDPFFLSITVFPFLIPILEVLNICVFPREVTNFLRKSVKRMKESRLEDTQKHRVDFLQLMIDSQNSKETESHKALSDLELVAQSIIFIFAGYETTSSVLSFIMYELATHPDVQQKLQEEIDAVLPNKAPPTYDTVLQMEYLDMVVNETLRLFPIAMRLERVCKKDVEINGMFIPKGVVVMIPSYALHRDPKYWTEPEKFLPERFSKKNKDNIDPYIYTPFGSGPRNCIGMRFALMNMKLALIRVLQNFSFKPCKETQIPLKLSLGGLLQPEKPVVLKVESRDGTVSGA
UniProt P10635, whole entry: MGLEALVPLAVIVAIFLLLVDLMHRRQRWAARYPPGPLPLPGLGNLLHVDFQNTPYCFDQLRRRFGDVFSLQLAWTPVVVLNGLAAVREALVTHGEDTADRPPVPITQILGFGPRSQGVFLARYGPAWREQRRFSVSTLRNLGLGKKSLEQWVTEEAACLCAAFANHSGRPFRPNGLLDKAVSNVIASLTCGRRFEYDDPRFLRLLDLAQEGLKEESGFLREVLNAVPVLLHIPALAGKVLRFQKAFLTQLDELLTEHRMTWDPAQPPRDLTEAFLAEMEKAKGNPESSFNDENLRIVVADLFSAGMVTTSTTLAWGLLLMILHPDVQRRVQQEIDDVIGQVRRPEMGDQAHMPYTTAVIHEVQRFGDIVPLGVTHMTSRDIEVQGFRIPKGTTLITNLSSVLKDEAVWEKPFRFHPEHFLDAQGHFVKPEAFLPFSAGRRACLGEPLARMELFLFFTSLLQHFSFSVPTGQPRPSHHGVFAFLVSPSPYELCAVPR
UniProt P33261, whole entry: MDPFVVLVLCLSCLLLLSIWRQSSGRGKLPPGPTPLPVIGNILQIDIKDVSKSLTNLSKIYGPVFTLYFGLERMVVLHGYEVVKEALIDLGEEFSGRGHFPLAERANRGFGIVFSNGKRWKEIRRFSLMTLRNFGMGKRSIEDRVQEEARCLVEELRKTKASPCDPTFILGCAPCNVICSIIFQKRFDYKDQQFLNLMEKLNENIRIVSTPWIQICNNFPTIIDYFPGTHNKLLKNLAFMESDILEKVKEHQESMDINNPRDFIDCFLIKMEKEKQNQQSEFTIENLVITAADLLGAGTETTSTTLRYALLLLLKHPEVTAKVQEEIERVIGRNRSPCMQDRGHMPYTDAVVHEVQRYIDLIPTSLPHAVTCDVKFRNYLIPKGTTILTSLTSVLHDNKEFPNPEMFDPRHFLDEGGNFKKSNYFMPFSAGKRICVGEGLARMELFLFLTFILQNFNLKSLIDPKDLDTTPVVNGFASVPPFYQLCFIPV
UniProt P05177, whole entry: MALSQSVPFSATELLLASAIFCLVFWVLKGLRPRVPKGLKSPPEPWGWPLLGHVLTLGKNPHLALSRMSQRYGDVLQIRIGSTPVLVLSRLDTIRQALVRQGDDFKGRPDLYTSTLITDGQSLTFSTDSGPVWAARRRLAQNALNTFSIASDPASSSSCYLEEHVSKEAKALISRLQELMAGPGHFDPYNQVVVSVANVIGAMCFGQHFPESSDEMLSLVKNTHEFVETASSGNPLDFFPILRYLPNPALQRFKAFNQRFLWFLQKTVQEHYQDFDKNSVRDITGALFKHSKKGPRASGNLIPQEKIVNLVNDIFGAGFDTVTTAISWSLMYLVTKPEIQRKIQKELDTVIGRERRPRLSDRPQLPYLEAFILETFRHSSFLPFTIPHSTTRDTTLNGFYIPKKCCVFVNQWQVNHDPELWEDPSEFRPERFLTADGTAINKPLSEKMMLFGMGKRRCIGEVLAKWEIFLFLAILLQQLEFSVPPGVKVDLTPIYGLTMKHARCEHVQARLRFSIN

In experiment [2] the target is Cytochrome P450 2D6 (Homo sapiens) (UniProt P10635). Description: qHTS for inhibitors of CYP2D6 against the NCATS DSHEA and TCM libraries (AID 1919972). Also: % is scaled to controls: 0 for no effect and ±100 for the full control effect. As to conditions: CYP2D6 enzymatic inhibition, luminescence qHTS; at 34.1 µM (top of the series). The method in brief:
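Steps: enzyme plus luciferin substrate dispensed; test substances pinned; 15 min RT; 1x NADPH regenerating solution added, 30–45 min RT protected from light; detection reagent, 30 min RT; luminescence measured. Minus-enzyme wells as background.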

For experiment [3], the target named is Cytochrome P450 2C19 (Homo sapiens) (UniProt P33261). Description: qHTS for inhibitors of CYP2C19 against the NCATS DSHEA and TCM libraries (AID 1919974).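 Also: luminescence from luciferin released by CYP2C19 oxidation of a pro-luciferin substrate; potency is read from the fitted curve at half-maximal effect.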 As to conditions: CYP2C19 enzyme inhibition, luminescence qHTS. In short, it runs like this:
as §1

Experiment [4] in a line: KB-3-1 P-gp reporter qHTS against the NCATS DSHEA and TCM libraries (AID 1919975). Also: 0% is about no effect. To be noted: KB-3-1 cells, P-gp reporter signal; at 26.1 µM (top of the series). The method in brief:
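72 h exposure of KB-3-1 cells (DMEM, 10% FBS) to DSHEA/TCM samples, concentration-response; cell viability measured as CellTiter-Glo luminescence after 30 min at room temperature.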

Experiment [5] addresses Cytochrome P450 1A2 (Homo sapiens) (UniProt P05177). Description: qHTS for inhibitors of CYPIA2 against the NCATS DSHEA and TCM libraries (AID 1919976). Also: potency is read from the fitted curve at half-maximal effect. To be noted: recombinant CYP1A2 enzyme activity, luminescence. The method in brief:
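Human CYP1A2 with its pro-luciferin substrate in supplier buffer (typically 100 mM KPO4) was pre-incubated with compounds 15 min at RT. Reaction was started with 1x NADPH regeneration solution and run 30-45 min at RT in the dark, then luminescence was read after P450-Glo detection reagent (30 min RT).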

Experiment [6] in a line: KB-8-5-11 P-gp reporter qHTS against the NCATS DSHEA and TCM libraries (AID 1919977). Also: 0% is about no effect. To be noted: KB-8-5-11 cells; at 26.1 µM (top of the series). In short, it runs like this: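 Cells were seeded, allowed ~4 h to attach, dosed by pin tool (substance titrations), incubated ~72 h at 37C, then lysed with CellTiter-Glo for 30 min at room temperature before luminescence reading.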

Experiment [7] can be described thus: Quantitative High-Throughput drug screen in 47 multiple myeloma cell lines against the NCATS MIPE library collection: KMS12PE_JCRB cell viability assay (AID 1918972). Also: nearly all actives have a fitted effect of over 30% in size. To be noted: KMS12PE myeloma viability, CellTiter-Glo ATP, 48 h; at 23.2 µM (top of the series). The method in brief:
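qHTS of the MIPE 4.0 collection: 500 myeloma cells/well, 48 h drug exposure at 37C in 5% CO2, then CellTiter-Glo for 5 min at room temperature before luminescence reading.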
On the technique in general: Cellular ATP, detected with luciferase, serves as a proxy for viable cell number.

Experiment [8] in a line: Quantitative High-Throughput drug screen in 47 multiple myeloma cell lines against the NCATS MIPE library collection: KMS21BM_JCRB cell viability assay (AID 1918974). To be noted: ATP luminescence, 48 h; at 23.2 µM (top of the series). The method in brief:
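Steps: seed 500 cells per well; pin-transfer MIPE 4.0 library; incubate 48 h at 37C, 5% CO2, humidified; add CellTiter-Glo, 5 min room temperature; read luminescence.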

A short description of experiment [9]: Quantitative High-Throughput drug screen in 47 multiple myeloma cell lines against the NCATS MIPE library collection: KMS26_JCRB cell viability assay (AID 1918975). Also: potency is read from the fitted curve at half-maximal effect; nearly all actives have a fitted effect of over 45% in size. As to conditions: KMS26 myeloma cells viability, CellTiter-Glo ATP, 48 h. In short, it runs like this:
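Approved and investigational drugs from MIPE 4.0 were added by pin tool to 500 cells per well. After 48 hours at 37C, ATP-based CellTiter-Glo luminescence indicated remaining viability.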

Experiment [10] can be described thus: Quantitative High-Throughput drug screen in 47 multiple myeloma cell lines against the NCATS MIPE library collection: MMM1_PLB cell viability assay (AID 1918976). Also: potency is read from the fitted curve at half-maximal effect; nearly all actives have a fitted effect of over 35% in size. As to conditions: MM.1S-type MMM1 myeloma cells viability, CellTiter-Glo, 48 h. The method in brief: (§2)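 Viability after 48 h drug exposure was measured as ATP-dependent luminescence. Cells, 500 per well, sat at 37 °C under 5% CO2; DMSO wells set 100%, media-only wells 0%.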

Experiment [11] is described as follows: Quantitative High-Throughput drug screen in 47 multiple myeloma cell lines against the NCATS MIPE library collection: NCIH929_DSMZ cell viability assay (AID 1918978). Also: potency is read from the fitted curve at half-maximal effect; nearly all actives have a fitted effect of over 35% in size. As to conditions: NCI-H929 myeloma viability, CellTiter-Glo ATP, 48 h. The method in brief: as §2
Experiment [12] can be described thus: Quantitative High-Throughput drug screen in 47 multiple myeloma cell lines against the NCATS MIPE library collection: OCIMY1_PLB cell viability assay (AID 1918979). Also: nearly all actives have a fitted effect of over 35% in size. To be noted: OCI-MY1 myeloma viability, CellTiter-Glo ATP, 48 h; at 23.2 µM (top of the series). The method in brief: as §2
Experiment [13] in a line: Quantitative High-Throughput drug screen in 47 multiple myeloma cell lines against the NCATS MIPE library collection: KMS28PE_JCRB cell viability assay (AID 1918983). Also: potency is read from the fitted curve at half-maximal effect; nearly all actives have a fitted effect of over 35% in size. As to conditions: KMS28PE multiple myeloma viability, CellTiter-Glo ATP, 48 h. In short, it runs like this:
as §2

Experiment [14] in a line: Quantitative High-Throughput drug screen in 47 multiple myeloma cell lines against the NCATS MIPE library collection: L363_DSMZ cell viability assay (AID 1918984). Also: nearly all actives have a fitted effect of over 40% in size. To be noted: L363 myeloma viability, CellTiter-Glo ATP luminescence, 48 h; at 23.2 µM (top of the series). In short, it runs like this:
as §2

Experiment [15] in a line: Quantitative High-Throughput drug screen in 47 multiple myeloma cell lines against the NCATS MIPE library collection: OPM1_PLB cell viability assay (AID 1918989). Also: nearly all actives have a fitted effect of over 40% in size. As to conditions: CellTiter-Glo, 48 h; at 23.2 µM (top of the series). The method in brief: as §2
Experiment [16] can be described thus: Quantitative High-Throughput drug screen in 47 multiple myeloma cell lines against the NCATS MIPE library collection: SKMM1_PLB cell viability assay (AID 1919863). Also: nearly all actives have a fitted effect of over 35% in size. As to conditions: SKMM1 myeloma viability, CellTiter-Glo ATP, 48 h; stronger effect = lower value. The method in brief:
as §2

Experiment [17] can be described thus: Quantitative High-Throughput drug screen in 47 multiple myeloma cell lines against the NCATS MIPE library collection: U266_ATCC cell viability assay (AID 1919864). Also: nearly all actives have a fitted effect of over 35% in size. As to conditions: U266 myeloma viability, CellTiter-Glo ATP luminescence, 48 h; at 23.2 µM (top of the series). The method in brief:
as §2

The nature of experiment [18]: Quantitative High-Throughput drug screen in 47 multiple myeloma cell lines against the NCATS MIPE library collection: XG6_PLB cell viability assay (AID 1919865). Also: potency is read from the fitted curve at half-maximal effect; nearly all actives have a fitted effect of over 40% in size. As to conditions: XG6 myeloma viability, CellTiter-Glo ATP luminescence, 48 h. The method in brief:
as §2

A short description of experiment [19]: Quantitative High-Throughput drug screen in 47 multiple myeloma cell lines against the NCATS MIPE library collection: VP6_DJ cell viability assay (AID 1919867). Also: nearly all actives have a fitted effect of over 40% in size. To be noted: ATP luminescence, 48 h; at 23.2 µM (top of the series). The method in brief:
as §2

Experiment [20] in a line: Quantitative High-Throughput drug screen in 47 multiple myeloma cell lines against the NCATS MIPE library collection: RPMI8226_ATCC cell viability assay (AID 1919871). Also: nearly all actives have a fitted effect of over 30% in size. As to conditions: RPMI8226 myeloma viability, CellTiter-Glo ATP luminescence, 48 h; at 23.2 µM (top of the series). The method in brief: as §2

The structures appear in SMILES notation. Only a part is listed here, and it is no random draw. Inconclusive results are not listed. Activity calls are given as the source filed them. Calls follow the shape of the dose curve; as a rule, active = well fitted curve in the direction sought with a large enough effect; inconclusive = small, poorly fitted or top-dose-only effect, or another doubt; inactive = no such curve, though single readings can be large; an effect the other way counts as inactive or inconclusive.

These results are taken from PubChem BioAssay (NCATS).

As a reminder, the viability is a read-out of living cells in per cent, often relative to untreated cells.

On to `C/C1=C2N=C(/C=C3N=C(/C(C)=C4\[N-][C@@](C)([C@@H]5N=C1[C@](C)(CCC(=O)NC[C@@H](C)OP(=O)([O-])O[C@H]1[C@@H](O)[C@@H](n6cnc7cc(C)c(C)cc76)O[C@@H]1CO)[C@H]5CC(N)=O)[C@@](C)(CC(N)=O)[C@@H]4CCC(N)=O)[C@@](C)(CC(N)=O)[C@@H]\3CCC(N)=O)C(C)(C)[C@@H]/2CCC(N)=O.[C-]#N.[Co+3]`, for which the activity change, negative = inhibition in [1] was inactive: -44.5%; in experiment [2] it was inactive: -19.4%; in [4], inactive: -25%; in [6], inactive: -16.1%. Further, the Potency is active: 3.16 µM in experiment [3] and active: 3.55 µM in experiment [5].

Regarding `CC1=C2[N-][C@@](C)([C@@H]3N=C(C(C)=C4N=C(C=C5N=C1[C@@](C)(CC(N)=O)[C@H]5CCC(N)=O)C(C)(C)[C@H]4CCC(N)=O)[C@](C)(CCC(=O)NC[C@@H](C)OP(=O)([O-])O[C@H]1[C@@H](O)[C@@H](n4cnc5cc(C)c(C)cc54)O[C@H]1CO)[C@H]3CC(N)=O)[C@@](C)(CC(N)=O)[C@@H]2CCC(N)=O.[C-]#N.[Co+3]`, the viability in [7] was inactive: 97.3%; in experiment [8], inactive: 165%; in experiment [12], inactive: 87.5%; in experiment [16], inactive: 98.9%. Also, the Potency in [9] is active: 0.204 µM; in [10], active: 0.724 µM; in experiment [11], active: 7.24 µM; in experiment [13], active: 6.45 µM; in experiment [18], active: 7.24 µM. For the same compound, the viability (% of control) in [14] was inactive: 124%; in experiment [15], inactive: 105%; in [20] it was inactive: 88.7%. In addition, in experiment [17], the viability (% of DMSO control) is inactive: 106%. Further, in [19], the viability (% of DMSO) was inactive: 103%.
